pEC50: −log10 of the molar value.
Tests used:
NALM-6 = assay: cells; settings: Homo sapiens, NALM-6, 120 h
697 = assay: cells; settings: Homo sapiens, 697, 120 h
[1] = Cytotoxicity against human NALM16 cells assessed as reduction in cell viability after 5 days by CellTiter-Glo assay; settings: NALM16, 120 h
LOUCY = assay: Cytotoxicity against human Loucy cells assessed as reduction in cell viability after 5 days by CellTiter-Glo assay; settings: 120 h
[2] = Cytotoxicity against human HD-MB03 cells assessed as reduction in cell viability after 5 days by CellTiter-Glo assay; settings: HD-MB03, 120 h

Measured: pEC50

COc1cc(OC)c2c(=O)[nH]c(-c3cc(C)c(OCCO)c(C)c3)nc2c1 [APABETALONE]
< 5.30: NALM-6 | 697 | [1] | LOUCY | [2]

— ChEMBL document CHEMBL4177706, “Exploiting a water network to achieve enthalpy-driven, bromodomain-selective BET inhibitors” (Bioorg Med Chem, 2018)
